The values that follow come from ChEMBL document CHEMBL4342505, “Achieving In Vivo Target Depletion through the Discovery and Optimization of Benzimidazolone BCL6 Degraders” (J Med Chem, 2020).

By UniProt entry, the sequences of proteins in these tests, tags left out.
UniProt Q9Y618, whole entry, looked up: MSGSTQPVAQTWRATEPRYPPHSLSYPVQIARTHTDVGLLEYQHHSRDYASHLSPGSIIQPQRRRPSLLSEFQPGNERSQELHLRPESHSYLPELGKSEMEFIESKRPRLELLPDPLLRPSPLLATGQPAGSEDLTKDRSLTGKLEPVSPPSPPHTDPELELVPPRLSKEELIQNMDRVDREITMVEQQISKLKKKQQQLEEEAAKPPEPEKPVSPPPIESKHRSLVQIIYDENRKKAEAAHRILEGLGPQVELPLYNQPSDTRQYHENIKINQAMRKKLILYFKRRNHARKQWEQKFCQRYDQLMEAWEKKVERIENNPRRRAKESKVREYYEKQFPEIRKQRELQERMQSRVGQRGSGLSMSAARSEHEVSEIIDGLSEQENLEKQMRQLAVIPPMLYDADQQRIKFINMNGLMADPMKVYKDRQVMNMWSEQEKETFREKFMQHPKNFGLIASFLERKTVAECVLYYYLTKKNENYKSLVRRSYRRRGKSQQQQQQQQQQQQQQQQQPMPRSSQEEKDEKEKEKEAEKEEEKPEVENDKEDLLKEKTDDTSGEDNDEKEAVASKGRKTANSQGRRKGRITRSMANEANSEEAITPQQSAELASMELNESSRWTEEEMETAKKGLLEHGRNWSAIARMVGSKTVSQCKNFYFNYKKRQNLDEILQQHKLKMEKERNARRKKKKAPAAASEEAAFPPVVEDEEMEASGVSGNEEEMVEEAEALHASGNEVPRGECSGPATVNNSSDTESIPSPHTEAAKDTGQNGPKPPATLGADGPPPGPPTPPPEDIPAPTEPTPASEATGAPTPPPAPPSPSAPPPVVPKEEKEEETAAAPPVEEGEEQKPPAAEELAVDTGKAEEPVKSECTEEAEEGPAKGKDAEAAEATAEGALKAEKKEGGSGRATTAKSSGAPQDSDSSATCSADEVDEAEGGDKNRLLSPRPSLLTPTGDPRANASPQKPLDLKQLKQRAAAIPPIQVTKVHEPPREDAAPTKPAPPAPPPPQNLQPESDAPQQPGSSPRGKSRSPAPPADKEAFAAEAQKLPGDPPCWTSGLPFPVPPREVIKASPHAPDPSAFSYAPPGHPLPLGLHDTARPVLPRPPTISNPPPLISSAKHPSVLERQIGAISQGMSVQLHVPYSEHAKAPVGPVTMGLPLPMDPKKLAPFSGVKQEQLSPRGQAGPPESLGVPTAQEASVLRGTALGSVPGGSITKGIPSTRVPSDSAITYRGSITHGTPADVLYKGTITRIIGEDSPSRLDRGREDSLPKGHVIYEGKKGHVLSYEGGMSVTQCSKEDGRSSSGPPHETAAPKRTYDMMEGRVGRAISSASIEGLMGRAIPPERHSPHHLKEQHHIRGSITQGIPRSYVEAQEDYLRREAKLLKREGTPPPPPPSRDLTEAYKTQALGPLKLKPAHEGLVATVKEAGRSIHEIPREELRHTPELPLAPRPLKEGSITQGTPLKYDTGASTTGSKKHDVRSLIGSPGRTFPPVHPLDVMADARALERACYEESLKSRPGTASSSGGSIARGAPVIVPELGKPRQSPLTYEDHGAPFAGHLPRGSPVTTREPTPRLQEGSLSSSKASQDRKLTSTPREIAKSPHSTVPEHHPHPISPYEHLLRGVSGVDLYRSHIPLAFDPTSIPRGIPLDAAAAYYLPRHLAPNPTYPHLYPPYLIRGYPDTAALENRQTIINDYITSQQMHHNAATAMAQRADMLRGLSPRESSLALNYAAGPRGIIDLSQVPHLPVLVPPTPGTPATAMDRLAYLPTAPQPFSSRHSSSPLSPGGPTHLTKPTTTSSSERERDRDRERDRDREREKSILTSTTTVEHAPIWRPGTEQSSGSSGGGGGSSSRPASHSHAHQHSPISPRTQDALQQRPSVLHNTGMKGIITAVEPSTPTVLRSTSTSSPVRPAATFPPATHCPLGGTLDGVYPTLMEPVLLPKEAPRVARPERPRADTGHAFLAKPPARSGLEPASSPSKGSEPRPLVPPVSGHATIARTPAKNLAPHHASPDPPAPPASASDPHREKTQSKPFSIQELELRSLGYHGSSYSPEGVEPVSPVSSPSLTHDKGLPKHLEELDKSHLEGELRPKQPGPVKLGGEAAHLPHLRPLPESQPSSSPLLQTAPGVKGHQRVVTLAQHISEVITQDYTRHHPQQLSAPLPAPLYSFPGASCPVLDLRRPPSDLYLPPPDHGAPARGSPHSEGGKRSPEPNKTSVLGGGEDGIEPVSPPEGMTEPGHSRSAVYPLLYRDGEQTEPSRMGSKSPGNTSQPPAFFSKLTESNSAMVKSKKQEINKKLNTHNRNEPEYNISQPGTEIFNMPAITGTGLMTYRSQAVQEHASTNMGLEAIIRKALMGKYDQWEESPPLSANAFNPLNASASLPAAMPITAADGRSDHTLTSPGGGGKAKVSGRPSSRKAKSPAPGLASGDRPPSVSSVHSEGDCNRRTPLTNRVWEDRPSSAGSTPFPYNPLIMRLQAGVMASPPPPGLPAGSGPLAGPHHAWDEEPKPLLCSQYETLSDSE

In one data set the target is BCL-6/NCOR2 (Homo sapiens, UniProt Q9Y618+P41182).
Data set [1] is described as follows: Kinetic solubility in HEPES buffer containing 5% DMSO at pH 8 incubated for 20 hrs by NMR analysis. Format: physicochemical. As to conditions: read-out: Kinetic_solubility.

Each structure is given as a SMILES string. Converted amounts (≈) assume the structure as drawn.

`Cn1c(=O)n(C)c2cc(Nc3ccnc(Cl)c3C#N)ccc21` had a DC50 at BCL-6/NCOR2 of over 30 µM.
Consider `Cn1c(=O)n(CCC(C)(C)O)c2cc(Nc3ncnc(Cl)c3C#N)ccc21`, for which the solubility kinetic at 20 h in data set [1] turned out to be 291 µM (≈ 113 µg/mL).
